Measured values taken from PubChem BioAssay (NCI).
Some tests of the compounds listed are not included; inactive here does not mean inactive elsewhere.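 Interpolation was linear, between the two tested concentrations surrounding the appropriate level; five concentrations were tested over 48 hours in 96-well plates. The concentration for 50% growth inhibition is given as GI50.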

Assays:
Experiment in all cases: DTP human tumour cell line panel, 48 h; in the data active = GI50 below about 0.43 µM; inactive = the rest
[1] = tested on: RXF 393 renal
[2] = tested on: NCI-H226 lung
[3] = tested on: SK-OV-3 ovarian
[4] = tested on: COLO 205 colon
[5] = tested on: NCI-H23 lung
[6] = tested on: SNB-19 CNS
[7] = tested on: HL-60(TB) leukemia
[8] = tested on: K-562 leukemia
[9] = tested on: M14 melanoma
[10] = tested on: CCRF-CEM leukemia
[11] = tested on: SNB-75 CNS
[12] = tested on: NCI-H322M lung
[13] = tested on: MDA-MB-231 breast
[14] = tested on: UACC-257 melanoma
[15] = tested on: PC-3 prostate
[16] = tested on: TK-10 renal
[17] = tested on: T-47D breast
[18] = tested on: KM12 colon
[19] = tested on: MDA-MB-435
[20] = tested on: MDA-N
[21] = tested on: NCI/ADR-RES ovarian
[22] = tested on: MCF7 breast
[23] = tested on: SN12C renal
[24] = tested on: HT29 colon
[25] = tested on: UACC-62 melanoma
[26] = tested on: DU-145 prostate
[27] = tested on: NCI-H460 lung
[28] = tested on: A549 NSCLC
[29] = tested on: SK-MEL-28 melanoma
[30] = tested on: HOP-62 NSCLC
[31] = tested on: OVCAR-8 ovarian
[32] = tested on: CAKI-1 renal
[33] = tested on: IGROV1 ovarian
[34] = tested on: MALME-3M melanoma
[35] = tested on: ACHN renal
[36] = tested on: 786-0 renal
[37] = tested on: LOX IMVI melanoma
[38] = tested on: HCC-2998 colon
[39] = tested on: RPMI-8226 leukemia
[40] = tested on: OVCAR-3 ovarian
[41] = tested on: SF-268 CNS
[42] = tested on: HCT-116 colon
[43] = tested on: SF-295 CNS
[44] = tested on: SK-MEL-5 melanoma
[45] = tested on: HCT-15 colon
[46] = tested on: U251 CNS
[47] = tested on: SK-MEL-2 melanoma
[48] = tested on: UO-31 renal
[49] = tested on: OVCAR-4 ovarian
[50] = tested on: EKVX NSCLC
[51] = tested on: OVCAR-5 ovarian
[52] = tested on: SR leukemia
[53] = tested on: SF-539 CNS
[54] = tested on: NCI-H522 lung
[55] = tested on: MOLT-4 leukemia
[56] = tested on: A498 renal
[57] = tested on: SW-620 colon

Measured: GI50

O=C(CCCN1CCC(OC(=O)C(O)(c2ccccc2)C2CCCC2)CC1)c1ccccc1 (configuration not stated)
inactive: [1] 14 µM | [2] 16.7 µM | [3] 22.9 µM | [4] 12.6 µM | [5] 17.1 µM | [6] 17.8 µM | [7] 18 µM | [8] 15.9 µM | [9] 13.9 µM | [10] 18.9 µM | [11] 15.9 µM | [12] 16.5 µM | [13] 16.3 µM | [14] 16.7 µM | [15] 14.6 µM | [16] 16 µM | [17] 20.2 µM | [18] 15.6 µM | [19] 18 µM | [20] 20.7 µM | [21] 15.4 µM | [22] 19.6 µM | [23] 16.5 µM | [24] 3.44 µM | [25] 18.3 µM | [26] 17.4 µM | [27] 20.2 µM | [28] 18.6 µM | [29] 19.8 µM | [30] 18.5 µM | [31] 17 µM | [32] 22 µM | [33] 18.2 µM | [34] 14.1 µM | [35] 15.8 µM | [36] 17.1 µM | [37] 14.2 µM | [38] 16.5 µM | [39] 21.9 µM | [40] 14 µM | [41] 18.6 µM | [42] 14.7 µM | [43] 17.8 µM | [44] 16.2 µM | [45] 15.9 µM | [46] 18.8 µM | [47] 17 µM | [48] 9.51 µM | [49] 14.8 µM | [50] 18.2 µM | [51] 15 µM | [52] 17.4 µM | [53] 17.7 µM | [54] 23.5 µM | [55] 22.2 µM | [56] 18.8 µM | [57] 19 µM
